# According to PubChem BioAssay AID540253 (National Center for Advancing Translational Sciences (NCATS), 2011):
# This is a selection; strong and weak results do not stand in their true shares. Results filed as inconclusive are left out. The source made the active and inactive calls. Calls follow the shape of the full dose curve.
# Target: Snurportin-1 (Homo sapiens) + GTP-binding nuclear protein Ran (Homo sapiens) + Importin subunit beta-1 (Homo sapiens) (UniProt O95149+P62826+Q14974)
# Assay: qHTS Assay for Inhibitors of RanGTP induced Rango (Ran-regulated importin-beta cargo) - Importin beta complex dissociation; also: % of control where 0% means no effect; nearly all actives have a fitted effect of over 45% in size
# Conditions: Biochemical FRET Rango-importin beta; at 46.1 µM (top of the series)
row,Compound,"activity change, negative = inhibition"
1,CCOC(=O)c1ccc(NP(C)(=O)Oc2ccc(Cl)cc2)cc1 (stereo not given),inactive: -11.5%
2,O=C(Nc1cc([As](=O)(O)O)ccc1O)c1ccccc1,inactive: 0.154%
3,CP(=O)(OC12CC3CC(CC(C3)C1)C2)OC12CC3CC(CC(C3)C1)C2,inactive: -4.59%
4,CC(C)(C)C(=O)NC(Sc1ccncn1)C(Cl)(Cl)Cl (stereo not given),inactive: 17.6%
5,O=[N+]([O-])c1ncn(CCn2ncnc2[N+](=O)[O-])n1,inactive: -8.34%
6,COC(=O)C1(C)COP(=O)(Nc2ccccc2)OC1 (stereo not given),inactive: -2.37%
7,O=[N+]([O-])c1cccc(NC2=NCC(CBr)S2)c1 (stereo not given),inactive: -1.67%
8,O=C(O)CNc1ccc([As](=O)(O)O)cc1,inactive: -4.11%
9,CCN(CC)CC(O)COC(=O)C(O)(c1ccccc1)C1CCCCC1 (stereo not given),inactive: -20.3%
10,COc1ccc(C2=NCC(CBr)S2)cc1 (stereo not given),inactive: 0.44%
11,COc1ccc(OP(C)(=O)Nc2ccc(Br)cc2)cc1 (stereo not given),inactive: 7.71%
12,O=[N+]([O-])c1cccc2n[nH]nc12,inactive: 0.559%
13,CC(=O)N1C2C3N(C(C)=O)C1C1N(C(C)=O)C(C(N1C(C)=O)N3C(C)=O)N2C(C)=O,inactive: -3.56%
14,COc1ccccc1OP(C)(=O)Nc1c(C)n(C)n(-c2ccccc2)c1=O (stereo not given),inactive: -18.5%
15,O=C(OCCCN1CCCC1)C(O)(c1ccccc1)C1CCCCC1 (stereo not given),inactive: 6.09%
16,Cc1ccc(NP(=O)(Oc2ccccc2)Oc2ccccc2)nc1,inactive: 14.6%
17,CP(=O)(Oc1ccccc1)N1CCOC1=O (stereo not given),inactive: 0.351%
18,CCc1ccc(OP(C)(=O)Nc2cccnc2)cc1 (stereo not given),inactive: -1.9%
19,CCc1nc2c(n1)c1c(non1O)c1c2no[n+]1[O-],inactive: -3.66%
20,O=[N+]([O-])c1cc([N+](=O)[O-])c(CCNc2ccccc2)c([N+](=O)[O-])c1,inactive: -6.24%
21,COc1ccccc1OP(C)(=O)Nc1ccccc1Br (stereo not given),inactive: 2.66%
22,CC(C)(C)c1ccc(OP(C)(=O)O)cc1,inactive: -6.9%

row,Compound,"activity change, negative = inhibition"
1,Nc1ccc([As](=O)(O)c2ccc(N)cc2)cc1,inactive: 0.728%
2,C[N+]1=C2C=CC=CC=C2SC12C([N+](=O)[O-])=CC([N+](=O)[O-])=C[C-]2[N+](=O)[O-] (stereo not given),inactive: 13.5%
3,CCN(/C(=N/P(=O)(N1CCOCC1)N1CCOCC1)N1CCOCC1)c1ccc(OC)cc1,inactive: -0.558%
4,CP(=O)(Nc1ccc(Cl)cc1)Oc1ccc(F)cc1 (stereo not given),inactive: -16.6%
5,CN(C)C(=O)c1c([N+](=O)[O-])cc([N+](=O)[O-])cc1[N+](=O)[O-],inactive: -14%
6,CC(C)=N/N=C(\N)N[N+](=O)[O-],inactive: 9.39%
7,CN(C)C(=O)OCCc1n(C)cc[n+]1C,inactive: -8.84%
8,CC1CCN(C(=O)Oc2c(Cl)cc(Cl)c3cccnc23)CC1,inactive: -5.33%
9,NC(=O)c1cc([N+](=O)[O-])cc([N+](=O)[O-])c1N,inactive: 25%
10,CN(C(=O)Cc1ccc(Cl)c(Cl)c1)[C@H]1CCCC[C@H]1N1CCCC1,inactive: 9.53%
11,COc1ccccc1OP(C)(=O)Nc1ccc(Br)cc1 (stereo not given),inactive: 7.03%
12,Cc1ccc(N/C(=N/P(=O)(N2CCOCC2)N2CCOCC2)N2CCOCC2)cc1,inactive: 1.92%
13,COc1ccccc1OP(=O)(Nc1ccc(C)cn1)Oc1ccccc1OC,inactive: 7.37%
14,COc1ccc(OP(C)(=O)Nc2ccccn2)cc1 (stereo not given),inactive: 20.9%
15,Cc1ccc(OP(=O)(Nc2nccs2)Oc2ccc(C)cc2)cc1,inactive: 12.1%
16,CN1CCCC(OC(=O)C(c2ccccc2)c2ccccc2)C1 (stereo not given),inactive: -1.35%
17,Clc1ccc(Cl)c(NC2=NCC(CBr)S2)c1 (stereo not given),inactive: -7.95%
18,CN(C)CCOC(=O)C(O)(c1ccccc1)C1CCCC1 (stereo not given),inactive: -19.2%
19,Cc1c(NP(C)(=O)Oc2ccc(C(C)C)cc2)c(=O)n(-c2ccccc2)n1C (stereo not given),inactive: 14%
20,Nc1cc(N)c2nonc2c1[N+](=O)[O-],inactive: -4.81%
21,CC(C)CC(=O)NC(Sc1ccc(Cl)cc1)C(Cl)(Cl)Cl (stereo not given),inactive: 3.63%
22,O=[N+]([O-])c1cc([N+](=O)[O-])c(Nc2ccccn2)c([N+](=O)[O-])c1,inactive: 0.499%

row,Compound,"activity change, negative = inhibition"
1,Oc1ccccc1CNc1ccccn1,inactive: 0.382%
2,O=C(NC(Sc1ccncn1)C(Cl)(Cl)Cl)c1ccccc1 (stereo not given),inactive: 7.91%
3,CP(=O)(Nc1ccccn1)Oc1ccccc1 (stereo not given),inactive: -9.8%
4,COc1ccccc1OP(C)(=O)Nc1ccc(C)cc1C (stereo not given),inactive: -3.23%
5,CCc1ccc(OP(C)(=O)O)cc1,inactive: 7.77%
6,CC(=O)Nc1ccc([As](=O)(O)O)cc1,inactive: 0.87%
7,O=C(O)c1ccccc1[As](=O)(O)O,inactive: 9.52%
8,CCCC1OP(N)(=O)OCC1CC (stereo not given),inactive: -1.74%
9,O=P(Nc1nc2ccc(Cl)cc2s1)(c1ccccc1)c1ccccc1,inactive: 2.64%
10,Cc1cc(C)cc(OP(C)(=O)Nc2cccc(C(F)(F)F)c2)c1 (stereo not given),inactive: -0.32%
11,Cc1cc(SC(NC(=O)c2ccc(F)cc2)C(Cl)(Cl)Cl)ncn1 (stereo not given),inactive: -3.66%
12,CCOP(=O)(Nc1ccccc1)OCC,inactive: -1.27%
13,COc1ccccc1OP(C)(=O)Nc1ccc(C)c(C)c1 (stereo not given),inactive: 1.64%
14,Cc1ccc(NP(=O)(Oc2ccccc2F)Oc2ccccc2F)nc1,inactive: 3.75%
15,CN(C(=O)Cc1ccc(Cl)c(Cl)c1)[C@H]1CCCC[C@@H]1N1CCCC1,inactive: 0.25%
16,COc1ccc(OP(C)(=O)Nc2ccccc2Br)cc1 (stereo not given),inactive: -12%
17,CCN(N=Nc1nonc1N)c1nonc1N,inactive: 25%
18,Nc1cccc2ccc([As](=O)(O)O)cc12,inactive: -12.2%
19,CP(=O)(Nc1ccc(Cl)cc1Cl)Oc1ccccc1 (stereo not given),inactive: -1.16%
20,CCCCCCCCCCCCCCCC1C[N+](C)(C)CCOP(C)(=O)O1 (stereo not given),inactive: 1.5%
21,CP(=O)(OCCOc1ccccc1)OCCOc1ccccc1,inactive: 8.13%
